We go through one compound from paper PMC9898996 (Bioorganic & medicinal chemistry, 2022).

By UniProt entry, the sequences of proteins in these tests, tags left out.
UniProt P35462, whole entry: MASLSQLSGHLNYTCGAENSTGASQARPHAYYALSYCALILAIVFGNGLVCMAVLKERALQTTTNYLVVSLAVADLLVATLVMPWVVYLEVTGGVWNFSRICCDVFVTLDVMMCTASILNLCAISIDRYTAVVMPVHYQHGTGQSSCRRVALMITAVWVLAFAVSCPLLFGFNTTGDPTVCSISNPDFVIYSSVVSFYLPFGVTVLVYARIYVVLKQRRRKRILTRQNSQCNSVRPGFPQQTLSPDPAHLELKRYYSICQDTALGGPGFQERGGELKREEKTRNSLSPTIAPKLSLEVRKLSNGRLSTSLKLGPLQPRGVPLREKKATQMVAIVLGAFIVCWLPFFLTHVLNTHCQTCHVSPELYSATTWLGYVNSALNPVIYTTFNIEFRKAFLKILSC

The experiment has as its target human D3 receptor (Homo sapiens, UniProt P35462).

As a reminder, the Emax is the maximal effect, on the per cent scale that the assay sets.

As to `CCCN(CCC)C1CCc2c(O)cccc2C1` (single isomer, unassigned; (-)) [(−)-5-OH-DPAT, 5-OH-DPAT], the Emax came out at 75 ± 4%.
